Source: PubChem BioAssay AID2553 (Johns Hopkins Ion Channel Center, 2010)
Only a part is listed here, and it is no random draw. Some salts or complexes appear as unconnected parts, following the source record. Active and inactive are the calls of the source.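 The calls were made as follows: active = B-score under library mean minus 3 SD, initial fluorescence not abnormally high, positive integrated signal ratio; inactive = the rest.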

By UniProt entry, the sequences of proteins in these tests, tags left out.
UniProt Q61143, whole entry: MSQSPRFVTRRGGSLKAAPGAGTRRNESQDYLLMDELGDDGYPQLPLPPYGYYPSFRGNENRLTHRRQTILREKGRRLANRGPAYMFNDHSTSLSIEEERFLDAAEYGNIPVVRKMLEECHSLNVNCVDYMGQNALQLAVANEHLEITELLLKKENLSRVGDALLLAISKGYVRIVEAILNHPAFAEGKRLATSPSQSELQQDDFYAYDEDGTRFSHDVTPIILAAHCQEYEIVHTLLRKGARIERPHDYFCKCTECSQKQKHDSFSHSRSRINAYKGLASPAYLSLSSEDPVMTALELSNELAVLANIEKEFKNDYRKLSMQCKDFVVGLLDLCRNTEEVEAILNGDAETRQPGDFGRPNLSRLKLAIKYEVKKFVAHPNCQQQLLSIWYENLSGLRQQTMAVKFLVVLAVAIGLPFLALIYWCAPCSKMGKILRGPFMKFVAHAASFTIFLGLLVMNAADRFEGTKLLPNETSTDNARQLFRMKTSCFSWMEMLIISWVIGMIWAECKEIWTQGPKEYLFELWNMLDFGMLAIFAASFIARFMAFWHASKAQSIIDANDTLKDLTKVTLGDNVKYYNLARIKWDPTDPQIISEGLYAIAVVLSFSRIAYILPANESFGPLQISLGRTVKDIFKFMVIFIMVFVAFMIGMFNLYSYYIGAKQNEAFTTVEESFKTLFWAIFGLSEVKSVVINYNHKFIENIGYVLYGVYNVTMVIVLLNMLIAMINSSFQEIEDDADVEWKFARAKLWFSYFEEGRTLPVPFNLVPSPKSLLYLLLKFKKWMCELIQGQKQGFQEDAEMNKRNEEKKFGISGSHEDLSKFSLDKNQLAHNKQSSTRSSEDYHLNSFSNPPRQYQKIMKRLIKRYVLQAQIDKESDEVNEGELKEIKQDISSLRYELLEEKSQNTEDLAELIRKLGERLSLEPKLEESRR

molecular target: Short transient receptor potential channel 6 (Mus musculus) (UniProt Q61143); test: mouse TRPC6 channel inhibitors, primary screen, cell-based, HEK293, membrane potential dye (AID 2553); settings: ACh-evoked depolarization, at 10 µM; stronger effect = lower value;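 as to B-score: B-score derived from integrated fluorescence ratio over the kinetic read; more negative B-score means stronger inhibition of depolarization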

Structure (SMILES)	outcome	B-score
CN(C)C1(CNC(=O)c2ccc(Cl)c(S(N)(=O)=O)c2)CCCCC1	inactive	–
CN(C)CCOC(=O)C(O)(c1ccccc1)C1CCCCC1 (stereo not given)	–	active: -9.87
O=P(Nc1nc2ccccc2s1)(c1ccccc1)c1ccccc1	inactive	–
C[C@H]1OP(=O)(Oc2ccccc2)[C@H](O)[C@H](O)[C@H]1N=[N+]=[N-] (stereo not given in full)	inactive	–
COc1ccc(NP(C)(=O)Oc2ccccc2OC)cc1 (stereo not given)	inactive	–
O=[N+]([O-])c1ncn(CCn2cnc([N+](=O)[O-])n2)n1	inactive	–
O=[N+]([O-])c1ccc(OP2(=O)COCCO2)cc1 (stereo not given)	inactive	–
CC(=O)NC(SC(=S)N(C)C)C(Cl)(Cl)Cl (stereo not given)	inactive	–
O=[As](O)(c1ccccc1)c1ccc(O)cc1	inactive	–
O=[N+]([O-])c1cc([N+](=O)[O-])c(NCC2CCS(=O)(=O)C2)c([N+](=O)[O-])c1 (stereo not given)	inactive	–
Cc1cc(-c2cccc3ccccc23)c(C)cn1.O=[N+]([O-])c1cc([N+](=O)[O-])c(O)c([N+](=O)[O-])c1	inactive	–
C(Cc1nn[nH]n1)Cc1nn[nH]n1	inactive	–
Nc1ccc([As](=O)(O)c2ccc([N+](=O)[O-])cc2)cc1	inactive	–
O=C(OC1CN2CCC1CC2)c1cccc(Cl)c1 (stereo not given)	inactive	–
CP(=O)(Nc1ccc(SC(F)(F)F)cc1)Oc1ccc(F)cc1 (stereo not given)	inactive	–
CC(C)C(=O)NC(Sc1ccccc1)C(Cl)(Cl)Cl (stereo not given)	inactive	–
O=P(Nc1nccs1)(c1ccccc1)c1ccccc1	inactive	–
CCOP(C)(=S)SCC(=O)NC(C)(CC)C(=O)O (stereo not given)	inactive	–
c1nnnn1CCn1cnnn1	inactive	–
CP(=O)(Nc1ccc2c(c1)OCCO2)Oc1ccccc1 (stereo not given)	inactive	–
O=P1(Nc2nc3ccc(Cl)cc3s2)COc2ccccc2O1 (stereo not given)	inactive	–
CCOc1ccc(C2=NCC(CBr)S2)cc1 (stereo not given)	inactive	–
CP(=O)(Nc1ccccc1F)Oc1ccccc1 (stereo not given)	inactive	–

Structure (SMILES)	outcome	B-score
CC(C)(C)C(=O)NC(Sc1ccccc1)C(Cl)(Cl)Cl (stereo not given)	inactive	–
CC(C)c1ccc(OP(C)(=O)Nc2ccc(SC(F)(F)F)cc2)cc1 (stereo not given)	inactive	–
CC(=O)c1ccc(N2CC2c2ccncc2)cc1 (stereo not given)	inactive	–
O=C(OC1CN2CCC1CC2)c1ccc([N+](=O)[O-])cc1 (stereo not given)	inactive	–
O=C(OCCN1CCN(CCOCc2ccccc2)CC1)C(O)(c1ccccc1)c1ccccc1	inactive	–
C[C@H]1OP(=O)(Oc2ccccc2)C[C@@H]2O[C@@H]21 (stereo not given in full)	inactive	–
C[C@@H]1C=CCP(=O)(Oc2ccccc2)O1 (stereo not given in full)	inactive	–
CC(=O)Nc1ccc([As](=O)(O)O)c(O)c1	inactive	–
COc1ccc2c(c1O)-c1c(O)c(OC)cc3c1[C@H](C2)[N+](C)(C)CC3.O=[N+]([O-])c1cc([N+](=O)[O-])c([O-])c([N+](=O)[O-])c1[O-]	inactive	–
CC(=O)Nc1ccc(Oc2c([N+](=O)[O-])cc([N+](=O)[O-])cc2[N+](=O)[O-])cc1	inactive	–
CCNC(=S)/N=C(\N)N[N+](=O)[O-]	inactive	–
O=C(NC1CCS(=O)(=O)C1)NP(=S)(Oc1ccccc1)Oc1ccccc1 (stereo not given)	inactive	–
c1ccc(-c2nn[nH]n2)c(-c2nn[nH]n2)c1	inactive	–
CCOC(=O)NC(Sc1ccccc1)C(Cl)(Cl)Cl (stereo not given)	inactive	–
Cc1ccc(NP(=O)(Oc2cccc(C)c2)Oc2cccc(C)c2)nc1	inactive	–
CCOC(=O)c1ccc(NP(C)(=O)Oc2ccc(F)cc2)cc1 (stereo not given)	inactive	–
COc1ccc(OP(C)(=O)Nc2ccc(SC(F)(F)F)cc2)cc1 (stereo not given)	inactive	–
COC(=O)c1cc2c(s1)N=C(c1ccccc1)N(C)P2(=O)N1CCOCC1 (stereo not given)	inactive	–
Cc1ccc(OP(=O)(Nc2ccccn2)Oc2ccc(C)cc2)cc1	inactive	–
CC(=O)NC(SC(=S)N(CC(C)C)CC(C)C)C(Cl)(Cl)Cl (stereo not given)	inactive	–
O=C(OC1CN2CCC1CC2)c1ccccc1 (stereo not given)	inactive	–
CCN(CC)CCCOC(=O)C(O)(c1ccccc1)C1CCCCC1 (stereo not given)	–	active: -8.5
CCC(=O)N1C2C3N(C(=O)CC)C1C1N(C(=O)CC)C(C(N1C(=O)CC)N3C(=O)CC)N2C(=O)CC	inactive	–

Structure (SMILES)	outcome	B-score
CP(=O)(Nc1ccccc1)Oc1ccc(F)cc1 (stereo not given)	inactive	–
Cc1ccccc1OP(=O)(Nc1ccccn1)Oc1ccccc1C	inactive	–
O=[N+]([O-])c1cc([N+](=O)[O-])c(OC2CCCCC2O)c([N+](=O)[O-])c1 (stereo not given)	inactive	–
CCCCCOc1ccc(NP(C)(=O)Oc2ccc(Cl)cc2Cl)cc1 (stereo not given)	inactive	–
CN(C)C(=O)Oc1noc2ccccc12	inactive	–
CC(=O)Nc1ccc([As](=O)(O)O)cc1	inactive	–
O=C(O)c1ccccc1[As](=O)(O)O	inactive	–
O=P(Nc1nc2ccc(Cl)cc2s1)(c1ccccc1)c1ccccc1	inactive	–
Cc1cc(C)cc(OP(C)(=O)Nc2cccc(C(F)(F)F)c2)c1 (stereo not given)	inactive	–
Cc1cc(SC(NC(=O)c2ccc(F)cc2)C(Cl)(Cl)Cl)ncn1 (stereo not given)	inactive	–
CCOP(=O)(Nc1ccccc1)OCC	inactive	–
COc1ccccc1OP(C)(=O)Nc1ccc(C)c(C)c1 (stereo not given)	inactive	–
Cc1ccc(NP(=O)(Oc2ccccc2F)Oc2ccccc2F)nc1	inactive	–
CN(C(=O)Cc1ccc(Cl)c(Cl)c1)[C@H]1CCCC[C@@H]1N1CCCC1	inactive	–
COc1ccc(OP(C)(=O)Nc2ccccc2Br)cc1 (stereo not given)	inactive	–
Cc1nc2ccc3ccccc3c2o1.O=[N+]([O-])c1cc([N+](=O)[O-])c(O)c([N+](=O)[O-])c1	inactive	–
O=[N+]([O-])c1cc([N+](=O)[O-])c(CCN2CCOCC2)c([N+](=O)[O-])c1	inactive	–
CCN(N=Nc1nonc1N)c1nonc1N	inactive	–
Nc1cccc2ccc([As](=O)(O)O)cc12	inactive	–
CP(=O)(Nc1ccc(Cl)cc1Cl)Oc1ccccc1 (stereo not given)	inactive	–
CP(=O)(OCCOc1ccccc1)OCCOc1ccccc1	inactive	–
NC(=O)c1cc([N+](=O)[O-])cc([N+](=O)[O-])c1N	inactive	–
COc1ccccc1OP(C)(=O)Nc1ccc(Br)cc1 (stereo not given)	inactive	–

Structure (SMILES)	outcome	B-score
Cc1ccc(N/C(=N/P(=O)(N2CCOCC2)N2CCOCC2)N2CCOCC2)cc1	inactive	–
COc1ccccc1OP(=O)(Nc1ccc(C)cn1)Oc1ccccc1OC	inactive	–
COc1ccc(OP(C)(=O)Nc2ccccn2)cc1 (stereo not given)	inactive	–
Cc1ccc(OP(=O)(Nc2nccs2)Oc2ccc(C)cc2)cc1	inactive	–
Clc1ccc(Cl)c(NC2=NCC(CBr)S2)c1 (stereo not given)	inactive	–
CN(C)CCOC(=O)C(O)(c1ccccc1)C1CCCC1 (stereo not given)	–	active: -10.1
Cc1c(NP(C)(=O)Oc2ccc(C(C)C)cc2)c(=O)n(-c2ccccc2)n1C (stereo not given)	inactive	–
Nc1cc(N)c2nonc2c1[N+](=O)[O-]	inactive	–
CC(C)CC(=O)NC(Sc1ccc(Cl)cc1)C(Cl)(Cl)Cl (stereo not given)	inactive	–
O=[N+]([O-])c1cc([N+](=O)[O-])c(Nc2ccccn2)c([N+](=O)[O-])c1	inactive	–
Oc1ccccc1CNc1ccccn1	inactive	–
O=C(NC(Sc1ccncn1)C(Cl)(Cl)Cl)c1ccccc1 (stereo not given)	inactive	–
Cc1c2non([O-])c-2c(C)[n+](=O)[n+]1[O-]	inactive	–
CP(=O)(Nc1ccccn1)Oc1ccccc1 (stereo not given)	inactive	–
COc1ccccc1OP(C)(=O)Nc1ccc(C)cc1C (stereo not given)	inactive	–
CCc1ccc(OP(C)(=O)O)cc1	inactive	–
CCN(CC)CC(O)COC(=O)C(O)(c1ccccc1)C1CCCCC1 (stereo not given)	–	active: -6.24
COc1ccc(C2=NCC(CBr)S2)cc1 (stereo not given)	inactive	–
COc1ccc(OP(C)(=O)Nc2ccc(Br)cc2)cc1 (stereo not given)	inactive	–
O=[N+]([O-])c1cccc2n[nH]nc12	inactive	–
CC(=O)N1C2C3N(C(C)=O)C1C1N(C(C)=O)C(C(N1C(C)=O)N3C(C)=O)N2C(C)=O	inactive	–
COc1ccccc1OP(C)(=O)Nc1c(C)n(C)n(-c2ccccc2)c1=O (stereo not given)	inactive	–
O=C(OCCCN1CCCC1)C(O)(c1ccccc1)C1CCCCC1 (stereo not given)	–	active: -9.95

Structure (SMILES)	outcome	B-score
Cc1ccc(NP(=O)(Oc2ccccc2)Oc2ccccc2)nc1	inactive	–
CP(=O)(Oc1ccccc1)N1CCOC1=O (stereo not given)	inactive	–
CCc1ccc(OP(C)(=O)Nc2cccnc2)cc1 (stereo not given)	inactive	–
CCc1nc2c(n1)c1c(non1O)c1c2no[n+]1[O-]	inactive	–
O=[N+]([O-])c1cc([N+](=O)[O-])c(CCNc2ccccc2)c([N+](=O)[O-])c1	inactive	–
COc1ccccc1OP(C)(=O)Nc1ccccc1Br (stereo not given)	inactive	–
CC(C)(C)c1ccc(OP(C)(=O)O)cc1	inactive	–
Nc1ccc([As](=O)(O)c2ccc(N)cc2)cc1	inactive	–
C[N+]1=C2C=CC=CC=C2SC12C([N+](=O)[O-])=CC([N+](=O)[O-])=C[C-]2[N+](=O)[O-] (stereo not given)	inactive	–
CCN(/C(=N/P(=O)(N1CCOCC1)N1CCOCC1)N1CCOCC1)c1ccc(OC)cc1	inactive	–
CP(=O)(Nc1ccc(Cl)cc1)Oc1ccc(F)cc1 (stereo not given)	inactive	–
CN(C)C(=O)c1c([N+](=O)[O-])cc([N+](=O)[O-])cc1[N+](=O)[O-]	inactive	–
CC(C)=N/N=C(\N)N[N+](=O)[O-]	inactive	–
CN(C)C(=O)OCCc1n(C)cc[n+]1C	inactive	–
CC1CCN(C(=O)Oc2c(Cl)cc(Cl)c3cccnc23)CC1	inactive	–
Nc1ccc2c(ccc3cccnc32)n1.O=[N+]([O-])c1cc([N+](=O)[O-])c(O)c([N+](=O)[O-])c1	inactive	–
CCOC(=O)c1ccc(NP(C)(=O)Oc2ccc(Cl)cc2)cc1 (stereo not given)	–	active: -8.2
O=C(Nc1cc([As](=O)(O)O)ccc1O)c1ccccc1	inactive	–
CP(=O)(OC12CC3CC(CC(C3)C1)C2)OC12CC3CC(CC(C3)C1)C2	inactive	–
CC(C)(C)C(=O)NC(Sc1ccncn1)C(Cl)(Cl)Cl (stereo not given)	inactive	–
O=[N+]([O-])c1ncn(CCn2ncnc2[N+](=O)[O-])n1	inactive	–
O=[N+]([O-])c1cccc(NC2=NCC(CBr)S2)c1 (stereo not given)	inactive	–
O=C(O)CNc1ccc([As](=O)(O)O)cc1	inactive	–
